The chains behind the UniProt entries cited, without tags or fusion partners.
UniProt P0DMS8, whole entry: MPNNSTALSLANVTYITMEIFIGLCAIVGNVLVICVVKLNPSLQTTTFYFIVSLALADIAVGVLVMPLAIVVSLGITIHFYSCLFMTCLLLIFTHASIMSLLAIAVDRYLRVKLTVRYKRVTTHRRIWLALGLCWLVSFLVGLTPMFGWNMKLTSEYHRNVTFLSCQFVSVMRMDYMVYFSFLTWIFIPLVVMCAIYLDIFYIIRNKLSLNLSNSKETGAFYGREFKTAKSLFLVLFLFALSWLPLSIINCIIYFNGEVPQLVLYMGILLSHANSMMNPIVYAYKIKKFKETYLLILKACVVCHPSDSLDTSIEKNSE

In ChEMBL document CHEMBL1142719 (J Med Chem, 2005):

Target: Adenosine receptor A3 (Homo sapiens, UniProt P0DMS8)
Assay: Relative activation of human Adenosine A3 receptor expressed in CHO cells at 10 uM treatment compared to 10 uM Cl-IB-MECA
Type: functional, cell-based

Activation: 96%
Compound: CNc1ncnc2c1ncn2[C@@H]1O[C@H](CO)[C@@H](O)[C@H]1O
